# Most compounds without a hit are left out; they make up all but 13% or so of the library.
# miR-21 reporter: miR-21 reporter, rising signal; HeLa miR-21 FLuc reporter, luciferase, 48 h; Potency, µM (titrated, usually from 38.3 µM), for the others: at the top dose reporter change, positive = more light; 340,000 tested, under 10 active; AID 2288; active = well fitted rising curve with a large enough effect; inconclusive = small, poorly fitted or top-dose-only effect; inactive = no such curve, though single readings can be large or run the other way;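 also: % of control where 0% means no effect; miR-21 action dims this reporter so a rising signal means less miR-21 action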
#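 HeLa cells endogenously expressing miR-21, stably carrying CMV-driven firefly luciferase with a downstream miR-21 binding site, 2000 cells/well. Titrations up to approximately 40 uM, 48 hours; luciferase luminescence read.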
# LMNA splice mod: LMNA splicing modulation; HeLa LMNA splicing GFP/RFP minigene ratio, 48 h; Potency, µM (top dose mostly 46.1 µM), for inactives: top-dose ratio change, negative = inhibition, most hits filed as inhibitors; 200,000 tested, 0.01% active; AID 1487; active = well fitted inhibition curve with a large enough effect in the signal ratio, with a control signal flat, not every such curve was filed as active; inconclusive = small, poorly fitted or top-dose-only effect, or effect the other way, or a change in a side signal; the % refers to the signal ratio; note: potency is the fitted concentration of half-maximal effect; % is set by controls: 0 for no effect and ±100 for the full control effect
#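 Read-out is the ratio of GFP to DsRed2 object intensity, acquired by 488 nm laser-scanning cytometry on HeLa lamin A-EGFP minigene reporter cells. Compound incubation 48 hrs at 37 °C in Opti-MEM with 2% FBS; DMSO 0.5% final.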
# Sfp inh: Sfp phosphopantetheinyl transferase inhibition; Q9F4F7; Biochemical Sfp PPTase activity, qHTS; Potency, µM, for the others: max response, negative = inhibition, usual class: inhibitors; hit rate 3.5% among 310,000; active = well fitted inhibition curve with a large enough effect; inconclusive = small, poorly fitted or top-dose-only effect, or another doubt; inactive = no such curve, though single readings can be large or run the other way;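 also: the enzyme is Sfp with the accession as filed and its product quenches rhodamine fluorescence; potency is read from the fitted curve at half-maximal effect; 0% = enzyme reaction without inhibitor and -100% = no enzyme wells; top concentration of the series not given in the record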
#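 Sfp 15 nM + cpd, 15 min RT; start w/ rhodamine-CoA 5 uM, BHQ-2-YbbR 12.5 uM (final); 50 mM Hepes pH 7.6, 10 mM MgCl2, 0.01% NP-40, 0.01% BSA; read 525/598 nm at 0 and 30 min.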
# KDM4E inh: blocks human JMJD2E demethylase activity. B2RXH2. JMJD2E catalytic domain, FDH-coupled NADH fluorescence (FDH is formaldehyde dehydrogenase). Potency, µM (titrated, usually from 57.1 µM), for inactives: top-dose activity change, negative = inhibition, actives largely listed as inhibitors. 230,000 tested, 1.6% active. AID 2147; active = well fitted inhibition curve with a large enough effect, not every such curve was filed as active; inconclusive = small, poorly fitted or top-dose-only effect, or another doubt; inactive = no such curve, though single readings can be large or run the other way;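 note: potency is the fitted concentration of half-maximal effect; 0% = wells with enzyme and -100% = buffer wells without enzyme; nearly all actives have a fitted effect of over 50% in size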
# ALDH1A1 inh: blocks purified human ALDH1A1 activity. Purified ALDH1A1, NADH fluorescence, propionaldehyde substrate. AID 1030. Potency, µM (titrated, usually from 75.3 µM), for inactives: at the top dose activity, negative = inhibition, hits mostly inhibitors. 220,000 tested, 7.3% active; active = well fitted inhibition curve with a large enough effect, not every such curve was filed as active; inconclusive = small, poorly fitted or top-dose-only effect, or another doubt; inactive = no such curve, though single readings can be large or run the other way;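 note: potency is the fitted concentration of half-maximal effect; plate controls were no enzyme wells and a reference inhibitor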
# G9a block: blocks human histone lysine methyltransferase G9a | 350,000 tested, 8.8% active | Potency, µM (doses to about 102 µM), for the others: top-dose activity, negative = inhibition, most hits filed as inhibitors | G9a H3K9 monomethylation, AlphaScreen, 2 h; note: potency is the fitted concentration of half-maximal effect; % is set by controls: 0 for no effect and ±100 for the full control effect; nearly all actives have a fitted effect of over 75% in size
#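 Readings reflect AlphaScreen signal from monomethyl-H3K9 antibody detection. HMT at 20 nM; substrate b-H3K9 500 nM; cofactor SAM 20 uM; 2 h RT reaction; compounds tested as titrations in qHTS with 15 min preincubation.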
# Starred values were filed as active, the others as inactive; ? = inconclusive; / = no result; ! = not confirmed by another sample; [ ] = remark or other dose. Unless noted, calls come from the whole dose curve; as a rule, active = well fitted curve in the direction sought with a large enough effect; inconclusive = small, poorly fitted or top-dose-only effect, or another doubt; inactive = no such curve, though single readings can be large; an effect the other way counts as inactive or inconclusive.
structure,miR-21 reporter,LMNA splice mod,Sfp inh,KDM4E inh,ALDH1A1 inh,G9a block
COc1ccc(-c2nnc(C3CCN(S(=O)(=O)c4ccccc4)CC3)o2)cc1,-2%,/,-15%,/,/,40µM*
COc1ccccc1-c1nnc(C2CCN(S(=O)(=O)c3ccccc3)CC2)o1,-7%,/,/,/,/,?
Cc1ccc(-c2nnc(C3CCN(S(=O)(=O)c4ccc(C)c(C)c4)CC3)o2)cc1,-12%,/,/,/,/,?
Cc1cccc(-c2nnc(C3CCN(S(=O)(=O)c4cccc(Cl)c4)CC3)o2)c1,-22%,/,/,/,/,3.2µM*
O=C(Nc1cccc(F)c1)N1CC2(CCN(C(=O)c3ccncc3)CC2)C1,/,/,15%,/,-9%,1%[12.7 µM]
CCOC(=O)c1c(N)n(-c2ccccc2CC)c2nc3ccccc3nc12,16%,?,/,/,/,-15%[59 µM]
Fc1ccc(N/N=C2/CCSc3sccc32)c(F)c1,-4%,/,-20%,?,19µM*,/
Cc1cc(NC(=O)COc2cccc([N+](=O)[O-])c2)no1,-10%,/,-2%,/,/,/
CCCCCCCNS(=O)(=O)c1cccc2c(Cl)cccc12,/,/,-2%,-9%,-4%,/
NCCCCCCCCCCNS(=O)(=O)c1cccc2c(Cl)cccc12,/,/,50µM*,-5%,-6%,/
NCCCCCCNS(=O)(=O)c1cccc2c(Cl)cccc12,/,?,63µM*!,-3%,7%,46%[12.7 µM]
Cc1cccc(CNc2cc(-c3cccnc3)ncn2)c1,/,17%,-6%,?,?,/
Cc1ccc(S(=O)(=O)/C=C\C#N)cc1,/,/,45µM*,-27%,0.011µM*,/
CC(C)(C)c1ccc(S(=O)(=O)/C=C\C#N)cc1,/,/,45µM*,?,0.056µM*,/
Cc1ccc(S(=O)(=O)/C=C2\NC(=O)CS2)cc1,-2%,4%,-1%,4%,?,?
O=C(CN1CCCN(Cc2cccc(F)c2)S1(=O)=O)Nc1ccc2c(c1)OCCO2,2%,-3%[46 µM],/,/,/,4%[12.7 µM]
CCOc1ccc(C(=O)CN2CCN(S(=O)(=O)c3ccc(OC)cc3)CC2)cc1,-3%,1%,8%,-2%,20µM*,13µM*
COc1cccc(C(=O)CN2CCN(S(=O)(=O)c3ccc(Br)cc3)CC2)c1,-3%,3%,-2%,-28%,11µM*,?
COc1ccc(C(=O)CN2CCN(S(=O)(=O)c3cccc([N+](=O)[O-])c3)CC2)cc1,-3%,-14%,6%,1%,10µM*,?
CCOc1ccc(C(=O)CN2CCN(S(=O)(=O)c3ccc(Br)cc3)CC2)cc1,-6%,-1%,2%,-4%,22µM*,32µM*

# 4 records drawn at random from those above:
structure,miR-21 reporter,LMNA splice mod,Sfp inh,KDM4E inh,ALDH1A1 inh,G9a block
CCCCCCCNS(=O)(=O)c1cccc2c(Cl)cccc12,/,/,-2%,-9%,-4%,/
CCOc1ccc(C(=O)CN2CCN(S(=O)(=O)c3ccc(OC)cc3)CC2)cc1,-3%,1%,8%,-2%,20µM*,13µM*
COc1ccccc1-c1nnc(C2CCN(S(=O)(=O)c3ccccc3)CC2)o1,-7%,/,/,/,/,?
NCCCCCCNS(=O)(=O)c1cccc2c(Cl)cccc12,/,?,63µM*!,-3%,7%,46%[12.7 µM]

# Going on with the list.
structure,miR-21 reporter,LMNA splice mod,Sfp inh,KDM4E inh,ALDH1A1 inh,G9a block
CC(C)(C)OC(=O)N1CCC(NC(=O)c2nc[nH]c2C(=O)NCC(=O)OCc2ccccc2)CC1,15%,/,10%,/,/,-16%
CO[C@@H]1COC(=O)[C@H](COCc2ccccc2)NC(=O)C/C=C\[C@@H](C)[C@H](OC)COC(=O)[C@@H](C)NC(=O)C/C=C\[C@H]1C,/,/,12%,/,3%[13.5 µM],/
COCCCN1C(=O)C(=O)/C(=C(/O)c2ccc3c(c2)OCCO3)C1c1ccc(C(=O)OC)cc1 (configuration not stated),-4%,11%,-15%,-8%,1%,-12%[59 µM]
COc1ccc(C2/C(=C(\O)c3ccc4c(c3)OCCO4)C(=O)C(=O)N2CCCn2ccnc2)cc1 (configuration not stated),-8%,/,-1%,/,/,?
CCOc1ccc(/C(O)=C2\C(=O)C(=O)N(CCN(C)C)C2c2cccc(OC)c2OC)cc1Cl (configuration not stated),-1%,-4%,-2%,?,?,-42%[59 µM]
COc1ccccc1C1/C(=C(\O)c2ccc3c(c2)OCCO3)C(=O)C(=O)N1CCCn1ccnc1 (configuration not stated),-30%,/,-2%,/,/,40µM*
COc1cccc(C2/C(=C(\O)c3ccc4c(c3)OCO4)C(=O)C(=O)N2CCN(C)C)c1OC (configuration not stated),-1%,9%,-6%,?,22µM*,?
CN(C)CCN1C(=O)C(=O)/C(=C(/O)c2ccc3c(c2)OCCO3)C1c1ccccn1 (configuration not stated),-26%,/,?,-26%,/,32µM*
CCN(CC)CCCN1C(=O)C(=O)/C(=C(/O)c2ccc3c(c2)OCCO3)C1c1ccc(C)o1 (configuration not stated),-18%,4%,3%,-24%,25µM*,?
Cc1ccc(Nc2nc3ccccc3c3nnc(C)n23)c(C)c1,-4%,/,/,/,/,-1%[59 µM]
CC(CNc1nc2ccccc2c2nc(-c3ccccc3)nn12)c1ccccc1 (configuration not stated),-1%,/,/,/,/,-24%[59 µM]
COc1cccc(/C(O)=C2/C(=O)C(=O)N(CCN(C)C)C2c2ccc(Br)cc2)c1 (configuration not stated),-2%,2%,6%,1%,2%,?
COc1cccc(/C(O)=C2/C(=O)C(=O)N(CCN(C)C)C2c2ccccn2)c1 (configuration not stated),-13%,2%,?,?,?,22µM*
COC(=O)c1ccc(NC(=O)CN2CCCN(Cc3ccc(Cl)cc3)S2(=O)=O)cc1,0%,-7%[46 µM],/,/,/,24%[59 µM]
CN(C)c1ccc(CN(C)C2CCCCC2)cc1,0%,6%,12%,-6%,-14%,50µM*
CN(C)c1ccc(CN2CCCCCC2)cc1,-2%,7%,-14%,-12%,17%,?
Cc1ccc(C2CC(c3ccccc3)=NN2C(=S)Nc2ccccc2)o1 (configuration not stated),15%,-20%,45µM*,12%,2µM*,-3%[12.7 µM]
N#Cc1cc2ccccc2nc1SCC(=O)NC1CC1,5%,/,-1%,/,/,50µM*
CCc1cc2ccccc2nc1SCC(=O)NC1CCCC1,-2%,/,5%,/,/,13%[59 µM]
S=c1[nH]nc(-c2cccnc2)n1/N=C/C=C/c1ccccc1,-10%,-6%,-25%,?,-16%,1.8µM*

# The results go on:
structure,miR-21 reporter,LMNA splice mod,Sfp inh,KDM4E inh,ALDH1A1 inh,G9a block
S=c1[nH]nc(-c2cccnc2)n1/N=C/c1cccs1,-6%,5%,-10%,-7%,?,4µM*
CC(/C=N/n1c(-c2cccnc2)n[nH]c1=S)=C\c1ccccc1,-1%,3%,?,?,?,0.89µM*
S=c1[nH]nc(-c2cccnc2)n1/N=C/c1ccccc1,1%,/,-14%,1%,/,4µM*
S=c1[nH]nc(-c2n[nH]c3c2CCC3)n1/N=C/C=C/c1ccccc1,-6%,/,-1%,4%,/,/
CC(C)(C)NC(=O)C(c1ccco1)N(Cc1ccc2c(c1)OCO2)C(=O)c1snc(C(N)=O)c1N (configuration not stated),1%,/,8%,/,/,7%[59 µM]
COC(=O)C/C=C\[C@H](C)[C@@H](OC)c1ccccc1Br,/,/,-6%,/,-4%[13.5 µM],/

# Looked up above.
# CCCCCCCNS(=O)(=O)c1cccc2c(Cl)cccc12 in KDM4E inh → -9%
# COc1cccc(C(=O)CN2CCN(S(=O)(=O)c3ccc(Br)cc3)CC2)c1 in KDM4E inh → -28%
